In patent US20250144069A1, “BILOBALIDE DERIVATIVE COMPOUNDS FOR TREATING NEUROLOGICAL DISEASES AND CANCERS” (The Chinese University of Hong Kong, priority 2023, published 2025):

Tested on: BV-2 murine microglial cell line
Assay: RSL3-induced ferroptosis model, cell viability (CCK-8)
Details: BV-2, co-treated with multiple doses of RSL3, 50 μM compound, 24 h

CC(C)(C)[C@]1(O)C[C@@H]2OC(=O)C[C@@]23C(=O)O[C@@H]2N(c4ccc(N)cc4)C(=O)[C@H](OC(=O)c4ccccc4)[C@]213 [XBB-037, 4-(3aS,5aS,8R,9R,10aS)-8-(benzoyloxy)-9-(tert-butyl)-9-hydroxy-2,4,7-trioxohexahydro-4H,9H-furo[3″,2″:2′,3′]cyclopenta[1′,2′:3,4]furo[2,3-b]pyrrol-6(5aH)-yl)benzenaminium chloride]
shift of RSL3 dose-dependent viability curve: diminished RSL3 lethality

CC(C)(C)[C@]1(O)C[C@@H]2OC(=O)C[C@@]23C(=O)O[C@@H]2OC(=O)[C@H](O)[C@]213 [bilobalide]
shift of RSL3 dose-dependent viability curve: relatively marginal
